Reference: PubChem BioAssay AID540308 (The Scripps Research Institute Molecular Screening Center, 2011)
Only a part is listed here, and it is no random draw. Calls of active or inactive are those of the source.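 Rule for the calls: active = activation above a per-plate cutoff, the mean activation of sample wells on that plate plus 3 SD (cut at about 8% in these data); inactive = the rest.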

Chains of the proteins cited; added tags and fusions are not shown.
UniProt P32245, whole entry: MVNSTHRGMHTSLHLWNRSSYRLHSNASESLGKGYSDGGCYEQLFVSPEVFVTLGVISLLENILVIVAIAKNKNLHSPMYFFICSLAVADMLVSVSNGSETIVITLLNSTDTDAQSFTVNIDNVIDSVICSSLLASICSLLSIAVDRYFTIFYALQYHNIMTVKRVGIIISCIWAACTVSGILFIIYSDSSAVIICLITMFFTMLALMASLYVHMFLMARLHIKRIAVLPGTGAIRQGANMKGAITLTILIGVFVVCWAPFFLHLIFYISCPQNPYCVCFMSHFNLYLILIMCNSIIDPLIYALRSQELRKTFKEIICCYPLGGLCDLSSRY

Target: Melanocortin receptor 4 (Homo sapiens) (UniProt P32245)
Experiment: MC4R agonists recruiting beta-arrestin, primary screen, cell-based, luminescence, agonist arm of biased-ligand search (AID 540308)
Conditions: U2OS MC4R beta-arrestin complementation, at 8.9 µM, hits give high values, percent of melanotan II response, DMSO zero

SMILES | activation
COc1ccc(C(=O)NCC2(N3CCOCC3)CCCCC2)cc1OC | inactive: 0.12%
COc1cc(C(=O)NCC2(N3CCOCC3)CCCCC2)cc(OC)c1C | inactive: -0.07%
O=C(NCC1(N2CCOCC2)CCCCC1)c1cc(Br)ccc1Cl | inactive: -0.22%
O=C(OC1CN2CCC1CC2)C1c2ccccc2C=Cc2ccccc21 (stereo not given) | inactive: -0.97%
CCOC(=O)N1CCC(Nc2ccc(C)cc2)CC1 | inactive: 0.6%
N/C(=N\O)c1c(N)no[n+]1[O-] | inactive: -0.54%
N#Cc1ccc(C(=O)NCC2(N3CCCCC3)CCCCC2)cc1 | inactive: -0.29%
CC(C)(C)OC(=O)N1CCC(N(C(=O)c2ccccc2)c2ccc(Cl)cc2)CC1 | inactive: 2.19%
CN(C)C1(CNC(=O)c2cccc(C#N)c2)CCCCC1 | inactive: 1.76%
c1ccc(CN2CCC(Nc3ccccc3)CC2)cc1 | inactive: 0.59%
CCCN1CCC(Nc2cc(OC)cc(OC)c2)CC1 | inactive: -2.02%
Cc1cc(N(CCCl)CCCl)ccc1C=O | inactive: -1.33%
Cc1ccc(C(=O)NCC2(N3CCCCC3)CCCCC2)o1 | inactive: -3.12%
Fc1ccccc1NC1CCN(Cc2ccccc2)CC1 | inactive: 0.18%
Cc1ccc(NC2(C#N)CCN(Cc3ccccc3)CC2)cc1 | inactive: -2.26%
CC(=O)N(c1ccccc1)C1CCNCC1 | inactive: -0.76%
COc1cc(OC)cc(C(=O)NCC2(N3CCCCC3)CCCCC2)c1 | inactive: -0.01%
O=C(NCC1(N2CCCCC2)CCCCC1)c1ccco1 | inactive: -1.72%
CN(C)c1ccc(C(=O)NCC2(N3CCCCC3)CCCCC2)cc1 | inactive: -0.9%
Cn1c(=O)[nH]cc(N(CCCl)CCCl)c1=O | inactive: -1.02%
Cc1ccccc1NC1(C#N)CCN(Cc2ccccc2)CC1 | inactive: 0.73%
CCN1CCC(Nc2cccc(F)c2)CC1 | inactive: -0.37%
CC(C)(C)OC(=O)N1CCC(Nc2ccccc2)CC1 | inactive: 1.8%
O=C(O)C1(Nc2ccccc2)CCN(Cc2ccccc2)CC1 | inactive: -0.28%
CCCOc1ccc(C(=O)NCC2(N(C)C)CCCCC2)cc1 | inactive: -1.8%

SMILES | activation
CCOc1ncccc1C(=O)NCC1(N2CCOCC2)CCCCC1 | inactive: -1.44%
CN1CCC(Nc2ccc(F)c(Cl)c2)CC1 | inactive: 2.08%
CN1CCC(Nc2ccc(Cl)cc2)CC1 | inactive: 0.08%
COc1cc(OC)cc(C(=O)NCC2(N3CCOCC3)CCCCC2)c1 | inactive: -1.26%
COc1cccc(C(=O)N(c2cc(C)cc(C)c2)C2CCN(C(=O)OC(C)(C)C)CC2)c1 | inactive: 2.89%
CCC(CO)(C(=O)OC1CN2CCC1CC2)c1ccccc1 (stereo not given) | inactive: 3.62%
CSc1ccccc1C(=O)NCC1(N2CCCCC2)CCCCC1 | inactive: -1.43%
Cc1cccc(NC2(C#N)CCN(Cc3ccccc3)CC2)c1 | inactive: -1.68%
COc1ccc(C(=O)NCC2(N3CCCCC3)CCCCC2)cc1 | inactive: -0.77%
COc1ccc(C(=O)NCC2(N3CCCCC3)CCCCC2)c(OC)c1OC | inactive: -2.65%
CC(C)(C)OC(=O)N1CCC(N(C(=O)c2ccccc2)c2ccc(F)cc2)CC1 | inactive: -1.63%
O=C(NCC1(N2CCCCC2)CCCCC1)c1ccc(=O)[nH]c1 | inactive: -1.98%
O=C(NCC1(N2CCCCC2)CCCCC1)c1cccs1 | inactive: -0.5%
N#CC1(Nc2ccccc2)CCN(Cc2ccccc2)CC1 | inactive: 1.06%
O=C(NCC1(N2CCCCC2)CCCCC1)c1ccc(Cl)s1 | inactive: -1.53%
O=C(OC1CN2CCC1CC2)C1c2ccccc2Oc2ccccc21 (stereo not given) | inactive: -2.07%
COc1ccc(Cl)cc1C(=O)NCC1(N2CCOCC2)CCCCC1 | inactive: -1.7%
CCOC(=O)N1CCC(Nc2ccc(OC)cc2)CC1 | inactive: -3%
O=C(NCC1(N2CCCCC2)CCCCC1)c1ccc(Cl)nc1 | inactive: 0.96%
Cc1cc(C)cc(N(C(=O)c2ccccc2)C2CCN(C(=O)OC(C)(C)C)CC2)c1 | inactive: 2.24%
O=C(NCC1(N2CCOCC2)CCCCC1)c1cc2ccccc2o1 | inactive: 0.78%
O=P1(N(CCCl)CCCl)SCCCS1 | inactive: 0.84%
CCCCOc1ccc(C(=O)NCC2(N3CCOCC3)CCCCC2)cc1 | inactive: -1%
O=C(NCC1(N2CCCCC2)CCCCC1)c1ccc(F)cc1 | inactive: 0.48%
COc1ccc(NC2CCN(CCc3ccccc3)CC2)c(OC)c1 | inactive: -0.19%

SMILES | activation
CCOC(=O)N1CCC(Nc2ccc(F)cc2)CC1 | inactive: -1.37%
O=C1CCN(Cc2ccccc2)CC1 | inactive: -0.74%
CCOc1ccc(C)cc1CN(CCCl)CCCl | inactive: 1.47%
CCOC(=O)N1CCC(Nc2cccc(C)c2)CC1 | inactive: -1.95%
COc1cc(C(=O)NCC2(N(C)C)CCCCC2)ccc1OC(F)F | inactive: -1.5%
CCN1CCC(Nc2ccc(Cl)cc2)CC1 | inactive: -0.58%
N#CC1(Nc2ccccc2)CCN(CCc2ccccc2)CC1 | inactive: -0.97%
CSc1ccc(C(=O)NCC2(N3CCOCC3)CCCCC2)cc1 | inactive: 0.42%
O=C(NCC1(N2CCCCC2)CCCCC1)c1cccc([N+](=O)[O-])c1 | inactive: -0.71%
O=C(NCC1(N2CCCCC2)CCCCC1)c1ccc(OC(F)F)cc1 | inactive: -0.56%
COc1cc(C(=O)NCC2(N3CCCCC3)CCCCC2)ccc1OC(F)F | inactive: 2.26%
O=C(NCC1(N2CCOCC2)CCCCC1)c1cc(=O)[nH]c2ccccc12 | inactive: -0.21%
CN1CCN(CCOC(=O)C(O)(c2ccccc2)c2ccccc2)CC1 | inactive: -1.06%
COc1ccc(NC2CCN(C(=O)OC(C)(C)C)CC2)cc1 | inactive: -3.18%
CC(C)c1ccc(C(=O)NCC2(N3CCOCC3)CCCCC2)cc1 | inactive: 0.48%
O=C(NCC1(N2CCCCC2)CCCCC1)c1cccc(C(F)(F)F)c1 | inactive: -0.41%
COc1cc(OC)c(C(=O)NCC2(N(C)C)CCCCC2)cc1OC | inactive: -0.6%
O=C(NCC1(N2CCOCC2)CCCCC1)c1cc(F)c(F)cc1Cl | inactive: 0.73%
CC(C)c1ccc(NC2CCN(C(=O)OC(C)(C)C)CC2)cc1 | inactive: 3.35%
COc1ccc(CN(CCCl)CCCl)cc1Cl | inactive: -2.94%
CN(C)c1cccc(C(=O)NCC2(N3CCCCC3)CCCCC2)c1 | inactive: 0.47%
Cc1ccc(C(=O)NCC2(N(C)C)CCCCC2)o1 | inactive: -0.04%
CCCOc1ccc(C(=O)NCC2(N(C)C)CCCCC2)cc1OC | inactive: -1.95%
CN1CCC(Nc2cccc(F)c2)CC1 | inactive: -1.65%
O=C(NCC1(N2CCCCC2)CCCCC1)c1cncc(Br)c1 | inactive: 0.16%
